Experiment [1] concerns the target hCRLR/hRAMP1 (human CGRP receptor) (Homo sapiens, UniProt O60894+Q16602). The experiment can be described thus: competitive 125I-hCGRP binding, membranes of 293 EBNA cells expressing hCRLR/hRAMP1.
For experiment [2], the target named is rCRLR/hRAMP1 (UniProt O60894+Q63118). The experiment can be described thus: competitive 125I-hCGRP binding, membranes expressing hybrid rCRLR/hRAMP1. Conditions: Table 4.
Experiment [3] addresses hCRLR/rRAMP1 (UniProt Q16602+Q9JJ74). Nature of the experiment: competitive 125I-hCGRP binding, membranes expressing hybrid hCRLR/rRAMP1. Conditions: Table 4. Also on record: species or system human CRLR, rat RAMP1.
Experiment [4] deals with rCRLR/rRAMP1 (native rat CGRP receptor) (Rattus norvegicus, UniProt Q63118+Q9JJ74). The experiment can be described thus: competitive 125I-hCGRP binding, membranes expressing rCRLR/rRAMP1.
Experiment [5] has as its target rCRLR/Chimera 2. The experiment can be described thus: competitive 125I-hCGRP binding, membranes expressing rCRLR with RAMP1 Chimera 2. More on the design: species or system rat CRLR, human/rat chimeric RAMP1. Conditions: Table 5; rCRLR/Chimera 2 (first 112 aa of rRAMP1 replaced with human).
In experiment [6] the target is mCRLR/mK74W RAMP1 (Mus musculus, UniProt Q9R1W5+Q9WTJ5, K74W). Nature of the experiment: competitive binding, membranes expressing mCRLR and mutant mK74W RAMP1.
In experiment [7] the target is rCRLR/rK74W RAMP1 (Rattus norvegicus, UniProt Q63118+Q9JJ74, K74W). Nature of the experiment: competitive 125I-hCGRP binding, membranes expressing rCRLR and mutant rK74W RAMP1. As for the experimental part:
Rat RAMP1 site-directed mutagenesis was performed by using the Quick Change Site-directed Mutagenesis Kit (Stratagene) according to the manufacturer's instructions. […] of rRAMP1 was replaced with the corresponding human/marmoset amino acid tryptophan utilizing two complementary mutant oligonucleotide primers ([NT] ID NO:27] and [NT] ID NO:28]) and the rRAMP1 expression vector construct as template. This mutation was accomplished by substituting the codon TGG corresponding to tryptophan (r[…] RAMP1). All constructs were sequenced bidirectionally with 100% coverage in each direction. Cell Culture and DNA Transfection-293 EBNA cells were cultured in DMEM with 4.5 g/L glucose, 1 mM sodium pyruvate and 2 mM glutamine supplemented with 10% Fetal Bovine Serum (FBS), 100 units/mL penicillin and 100 μg/mL streptomycin, and maintained at 37° C. and 95% humidity. Cells were subcultured by treatment with 0.25% trypsin with 0.1% EDTA in HBSS. Twenty-four hours prior to transfection, the cells were seeded at 2.0×10^7/dish in 500 cm^2 dishes. The following day, the cells were re-fed with fresh growth medium 1 hour before transfection. Transfections were performed by combining 60 μg/dish DNA with 180 μg/dish Lipofectamine 2000 (Life Technologies). cDNA's for CRLR and RAMP1 in the mammalian expression vector pcDNA3.1 were co-transfected in equal amounts. […] Data were analyzed by using GraphPad Prism. […]

Sequences of proteins named here, by UniProt entry; tags and fusion partners are left off. Residues count along the entry.
UniProt Q9R1W5, 23-463 limits assumed: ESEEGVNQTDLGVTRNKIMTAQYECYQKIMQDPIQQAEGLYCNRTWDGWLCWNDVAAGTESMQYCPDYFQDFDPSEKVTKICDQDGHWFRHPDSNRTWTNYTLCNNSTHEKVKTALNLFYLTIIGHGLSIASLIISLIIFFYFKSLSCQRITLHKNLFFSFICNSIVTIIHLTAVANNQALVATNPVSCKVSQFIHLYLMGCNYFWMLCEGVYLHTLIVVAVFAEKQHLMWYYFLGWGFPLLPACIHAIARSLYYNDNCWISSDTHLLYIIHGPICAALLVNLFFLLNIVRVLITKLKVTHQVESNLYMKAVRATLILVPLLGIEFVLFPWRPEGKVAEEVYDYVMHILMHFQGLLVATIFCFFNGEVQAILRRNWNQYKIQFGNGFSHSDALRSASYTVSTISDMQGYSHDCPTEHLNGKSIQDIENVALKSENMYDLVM
UniProt Q9WTJ5, 27-148 K74W limits assumed: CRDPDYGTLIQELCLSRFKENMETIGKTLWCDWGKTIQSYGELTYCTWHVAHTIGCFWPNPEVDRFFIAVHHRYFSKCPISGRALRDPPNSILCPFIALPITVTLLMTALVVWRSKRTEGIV
UniProt Q9WTJ5, 27-148 limits assumed: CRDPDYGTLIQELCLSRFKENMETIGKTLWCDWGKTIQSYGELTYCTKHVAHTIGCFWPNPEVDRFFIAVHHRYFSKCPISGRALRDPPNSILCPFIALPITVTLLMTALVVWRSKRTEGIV

For experiment [8], the target named is mCRLR/mRAMP1 (native mouse receptor) (Mus musculus, UniProt Q9R1W5+Q9WTJ5). Nature of the experiment: competitive binding, membranes expressing mCRLR/mRAMP1. The settings on record: Table 7.
In experiment [9] the target is rCRLR/Chimera 1 (Rattus norvegicus, UniProt Q63118+Q9JJ74, D29E/D31N/E46V/G64R/I36L/I51V/K45Q/K53E/K61R/P30A/Q37R/R28Q/R43Q/S42T/T34A/T50A/V24T). The experiment can be described thus: competitive 125I-hCGRP binding, membranes expressing rCRLR with RAMP1 Chimera 1. Also on record: species or system rat CRLR, human/rat chimeric RAMP1. Conditions: Table 5; rCRLR/Chimera 1 (first 66 aa of rRAMP1 replaced with human). An excerpt: Two human/rat chimeric RAMP1 cDNAs were constructed by using restriction fragments of the corresponding native cDNAs. Chimera 1 was created by replacing the nucleotides coding for the first 66 amino acids of rRAMP1 with the corresponding nucleotides of hRAMP1 by using the BsgI restriction site along with a NheI site located in the cloning vector. Chimera 2 was created by replacing the nucleotides coding for the first 112 amino acids of rRAMP1 with the corresponding nucleotides of hRAMP1 by using the SanDI restriction site along with a NheI site located in the cloning vector. Cell Culture and DNA Transfection-293 EBNA cells were cultured in DMEM with 4.5 g/L glucose, 1 mM sodium pyruvate and 2 mM glutamine supplemented with 10% Fetal Bovine Serum (FBS), 100 units/mL penicillin and 100 μg/mL streptomycin, and maintained at 37° C. and 95% humidity. Cells were subcultured by treatment with 0.25% trypsin with 0.1% EDTA in HBSS. Twenty-four hours prior to transfection, the cells were seeded at 2.0×10^7/dish in 500 cm^2 dishes. The following day, the cells were re-fed with fresh growth medium 1 hour before transfection. Transfections were performed by combining 60 μg/dish DNA with 180 μg/dish Lipofectamine 2000 (Life Technologies). cDNA's for CRLR and RAMP1 in the mammalian expression vector pcDNA3.1 were co-transfected in equal amounts. […] Data were analyzed by using GraphPad Prism. […]

Turning to `O=C(NC(Cc1cc(Br)c(O)c(Br)c1)C(=O)N1CCN(c2ccccc2)CC1)N1CCC(n2c(=O)[nH]c3ccccc32)CC1` (stereo not drawn), the IC50 in experiment [1] (Table 4, hCRLR/hRAMP1, transient 293 EBNA membranes) was found to be 150 nM; in experiment [1] (Table 5, hCRLR/hRAMP1), 150 nM; in [1] (Table 6, hCRLR/hRAMP1), 270 nM; in experiment [1] (Table 7, hCRLR/hRAMP1) it was 150 nM; in [2] it was 190 nM; in experiment [3], 24000 nM. Besides, the half-maximal inhibitory concentration (IC50) in [4] (Table 4) was 15000 nM; in experiment [4] (Table 6) it was 20000 nM; in [5] it was 150 nM; in experiment [6] (Table 7, mCRLR/mK74W RAMP1), 13 nM; in experiment [7] (Table 6, rCRLR/rK74W RAMP1), 19 nM; in [8], more than 20000 nM. In experiment [9], this molecule registered a 50% inhibitory concentration (IC50) of 9000 nM. In addition, in experiment [6] (mCRLR/mK74W RAMP1 vs hCRLR/hRAMP1), the “higher affinity for the mCRLR/mK74W RAMP1 receptor than for the native human receptor” value was more than 10 fold. In addition, in experiment [7] (rCRLR/rK74W RAMP1 vs hCRLR/hRAMP1), the “higher affinity for the rCRLR/rK74W RAMP1 receptor than for the native human receptor” value is on record as more than 10 fold.

For the origin of these results see patent publication US20040197859A1, “Isolated dna molecules encoding humanized calcitonin gene-related peptide receptor, related non-human transgenic animals and assay methods” (priority 2001, published 2004).
